These results are taken from US20230012570A1, “BICYCLIC COMPOUND USED AS SELECTIVE ANDROGEN RECEPTOR MODULATOR” (MEDSHINE DISCOVERY INC., priority 2019, published 2023).

Amino acid sequences for entries named in this document (tags omitted).
UniProt P10275, whole entry: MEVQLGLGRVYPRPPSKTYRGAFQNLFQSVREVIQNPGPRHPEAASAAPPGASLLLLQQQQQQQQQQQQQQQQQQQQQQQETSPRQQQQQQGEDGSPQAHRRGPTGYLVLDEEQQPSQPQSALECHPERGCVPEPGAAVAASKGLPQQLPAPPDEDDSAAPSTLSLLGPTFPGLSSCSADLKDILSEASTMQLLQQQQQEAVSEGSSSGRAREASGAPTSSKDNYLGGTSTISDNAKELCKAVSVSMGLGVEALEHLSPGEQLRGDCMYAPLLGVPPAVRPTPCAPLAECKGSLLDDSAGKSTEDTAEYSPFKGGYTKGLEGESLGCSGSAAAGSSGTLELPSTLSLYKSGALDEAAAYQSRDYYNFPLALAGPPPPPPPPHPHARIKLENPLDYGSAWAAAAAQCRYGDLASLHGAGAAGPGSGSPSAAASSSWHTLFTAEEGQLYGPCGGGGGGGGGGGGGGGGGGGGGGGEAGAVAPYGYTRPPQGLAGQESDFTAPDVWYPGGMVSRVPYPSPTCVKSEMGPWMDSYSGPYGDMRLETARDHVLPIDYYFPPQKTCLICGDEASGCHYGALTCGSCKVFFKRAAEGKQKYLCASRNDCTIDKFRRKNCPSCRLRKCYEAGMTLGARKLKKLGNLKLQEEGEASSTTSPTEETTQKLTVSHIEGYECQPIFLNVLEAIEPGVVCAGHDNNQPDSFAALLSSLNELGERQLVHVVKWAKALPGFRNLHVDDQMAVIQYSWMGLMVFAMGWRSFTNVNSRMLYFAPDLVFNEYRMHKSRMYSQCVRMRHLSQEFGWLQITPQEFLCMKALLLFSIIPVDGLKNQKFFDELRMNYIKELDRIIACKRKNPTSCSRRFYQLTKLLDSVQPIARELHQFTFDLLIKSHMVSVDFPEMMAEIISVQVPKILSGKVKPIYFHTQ
UniProt P11712, whole entry: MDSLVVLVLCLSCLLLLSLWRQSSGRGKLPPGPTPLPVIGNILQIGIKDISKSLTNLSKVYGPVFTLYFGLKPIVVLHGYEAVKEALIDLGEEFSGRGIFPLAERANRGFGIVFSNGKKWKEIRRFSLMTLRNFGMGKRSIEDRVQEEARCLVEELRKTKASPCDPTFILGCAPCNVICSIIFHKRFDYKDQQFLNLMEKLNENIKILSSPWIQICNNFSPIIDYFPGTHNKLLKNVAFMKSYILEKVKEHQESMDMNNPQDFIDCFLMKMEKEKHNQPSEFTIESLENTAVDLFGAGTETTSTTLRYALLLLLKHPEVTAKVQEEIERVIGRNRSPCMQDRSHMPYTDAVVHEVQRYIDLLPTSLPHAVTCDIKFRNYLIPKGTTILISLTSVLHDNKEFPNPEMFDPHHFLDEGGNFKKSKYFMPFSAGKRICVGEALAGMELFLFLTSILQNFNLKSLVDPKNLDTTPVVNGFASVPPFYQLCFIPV
UniProt P10635, whole entry: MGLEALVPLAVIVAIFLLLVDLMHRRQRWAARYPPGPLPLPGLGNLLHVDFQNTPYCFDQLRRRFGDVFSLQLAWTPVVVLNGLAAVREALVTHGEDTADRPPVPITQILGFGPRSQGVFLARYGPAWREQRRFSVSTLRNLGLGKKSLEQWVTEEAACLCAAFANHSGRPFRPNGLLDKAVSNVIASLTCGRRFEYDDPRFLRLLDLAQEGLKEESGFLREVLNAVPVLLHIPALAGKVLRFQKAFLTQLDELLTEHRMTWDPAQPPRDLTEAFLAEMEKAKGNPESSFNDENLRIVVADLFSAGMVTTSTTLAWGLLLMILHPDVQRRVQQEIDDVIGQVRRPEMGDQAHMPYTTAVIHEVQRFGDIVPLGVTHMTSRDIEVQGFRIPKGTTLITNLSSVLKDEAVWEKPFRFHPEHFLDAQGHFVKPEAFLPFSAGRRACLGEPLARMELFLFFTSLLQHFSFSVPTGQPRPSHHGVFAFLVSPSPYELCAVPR
UniProt P05177, whole entry: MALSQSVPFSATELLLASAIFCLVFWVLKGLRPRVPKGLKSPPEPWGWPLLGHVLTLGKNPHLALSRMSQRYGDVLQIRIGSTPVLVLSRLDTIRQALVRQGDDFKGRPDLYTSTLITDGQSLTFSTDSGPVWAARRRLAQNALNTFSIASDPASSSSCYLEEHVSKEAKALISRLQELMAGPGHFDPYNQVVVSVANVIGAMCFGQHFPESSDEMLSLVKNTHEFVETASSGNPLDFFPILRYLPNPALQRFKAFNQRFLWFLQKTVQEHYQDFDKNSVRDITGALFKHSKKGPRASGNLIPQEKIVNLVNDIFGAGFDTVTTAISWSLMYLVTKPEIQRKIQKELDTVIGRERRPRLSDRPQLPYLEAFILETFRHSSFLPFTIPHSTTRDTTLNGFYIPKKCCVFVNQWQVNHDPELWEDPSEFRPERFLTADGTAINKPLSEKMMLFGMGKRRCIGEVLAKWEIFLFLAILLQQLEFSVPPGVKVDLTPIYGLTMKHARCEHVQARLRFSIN
UniProt P33261, whole entry: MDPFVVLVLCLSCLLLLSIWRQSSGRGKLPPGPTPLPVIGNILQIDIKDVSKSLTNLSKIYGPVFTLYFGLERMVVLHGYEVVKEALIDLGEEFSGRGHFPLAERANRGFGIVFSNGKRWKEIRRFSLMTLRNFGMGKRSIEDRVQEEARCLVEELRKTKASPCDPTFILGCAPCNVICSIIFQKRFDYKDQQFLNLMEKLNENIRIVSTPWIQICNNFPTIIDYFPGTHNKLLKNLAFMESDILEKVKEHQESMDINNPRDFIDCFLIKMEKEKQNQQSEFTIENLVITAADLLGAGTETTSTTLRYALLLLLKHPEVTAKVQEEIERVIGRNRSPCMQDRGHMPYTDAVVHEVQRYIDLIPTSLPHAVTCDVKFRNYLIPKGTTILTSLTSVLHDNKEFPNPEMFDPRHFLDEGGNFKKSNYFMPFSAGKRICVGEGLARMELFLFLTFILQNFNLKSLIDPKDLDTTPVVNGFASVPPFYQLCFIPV
UniProt P08684, whole entry: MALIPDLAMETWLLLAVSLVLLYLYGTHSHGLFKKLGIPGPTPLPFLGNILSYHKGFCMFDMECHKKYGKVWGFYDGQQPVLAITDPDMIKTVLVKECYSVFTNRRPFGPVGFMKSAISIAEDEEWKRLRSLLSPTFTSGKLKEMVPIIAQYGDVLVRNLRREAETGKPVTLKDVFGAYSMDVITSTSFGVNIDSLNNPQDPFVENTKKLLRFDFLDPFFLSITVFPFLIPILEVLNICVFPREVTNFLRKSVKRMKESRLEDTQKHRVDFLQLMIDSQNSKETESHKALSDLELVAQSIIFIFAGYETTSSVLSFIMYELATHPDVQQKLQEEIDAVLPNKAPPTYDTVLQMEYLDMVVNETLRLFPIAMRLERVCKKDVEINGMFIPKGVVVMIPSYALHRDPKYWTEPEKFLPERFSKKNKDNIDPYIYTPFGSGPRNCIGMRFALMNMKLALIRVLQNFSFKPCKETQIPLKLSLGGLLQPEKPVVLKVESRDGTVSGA

Some results are limits rather than exact numbers.

For one data set, the target named is androgen receptor (AR) (Homo sapiens, UniProt P10275). Put plainly: Agonistic effect of test compounds on androgen receptor (AR), LiveBLAzer FRET reporter cell assay. Conditions: read-out: EC50, agonist activity on androgen receptor; AR cells, 16 hours incubation, 10 concentrations. The procedure: Experimental Embodiment 1: Agonistic Effect of Test Compounds on Androgen Receptor (AR)
1. Preparation of Compounds, Placing in Plates:
1.1 Preparation of compounds: the test compounds were diluted to the working concentration, and each compound was diluted by 4 times with Echo for 10 concentration gradients, and the compounds were added to a 384-well cell plate according to the microplate layout diagram, with 200 nL per well;
1.2 AR cell assay medium: 87% Opti-MEM (reduced serum medium), 10% Dialyzed FBS (dialyzed fetal bovine serum), 1% NEAA (non-essential amino acids), 1% sodium pyruvate and 1% penicillin-streptomycin;
1.3 culture medium, trypsin and Dulbecco's phosphate buffer were preheated in a 37° C. water bath;
1.4 the original medium in the cell culture flask was removed, and the cells were washed once with 6 mL of Dulbecco's phosphate buffer; […]
2. Reading the Board and Analyzing Data: […]
2.3 the cell culture plate was taken out, and 8μL of 6×substrate buffer was added to each well, shaken for 1 minute, and centrifuged at 1000 rpm for 10 seconds; after sealing the membrane, the cells were incubated at 23° C. for 2 hours, and the plate was read with Envision, and the curve EC50 value was fitted by Prism software.

In another data set the target is CYP2C9 (Homo sapiens, UniProt P11712). Kind of data set: Human liver microsomal CYP inhibition experiment, CYP2C9. The settings on record: read-out: IC50 CYP2C9; mixed human liver microsomes, 10 min incubation with NADPH. Here is the method:
(§1) Experiment Embodiment 4: Human Liver Microsomal CYP Inhibition Experiment
(§2) The inhibitory effects of the test compound 3A and VK5211 on the activities of human liver microsomal cytochrome P450 isozymes (CYP1A2, CYP2C9, CYP2C19, CYP2D6 and CYP3A4) were determined.
(§3) Mixed human liver microsomes (HLM) were purchased from Corning Inc. (Steuben, New York, USA) or XenoTech, LLC. (Lenexa, Kans., USA) or other suppliers, and were stored at a temperature below −60° C. before use.
(§4) First, the test compound (10.0 mM) was gradient diluted to prepare working solution (100×final concentration), and the concentrations of the working solution were: 5.00, 1.50, 0.500, 0.150, 0.0500, 0.0150, 0.00500 mM, and a working solution of each positive inhibitor of P450 isozymes (CYP1A2, CYP2C9, CYP2C19, CYP2D6, and CYP3A4) and a specific substrate mixture thereof (5 in 1) were prepared at the same time; human liver microsomes stored in a refrigerator at a temperature lower than −60° C. were put on ice to thaw, and when all the human liver microsomes were dissolved, the microsomes were diluted with potassium phosphate buffer (PB) to prepare a working solution of a certain concentration (0.253 mg/mL). […] The concentration of metabolites produced by the probe substrate in the sample was determined by liquid chromatography-tandem mass spectrometry (LC-MS/MS) method. […]

Another data set has as its target CYP2D6 (Homo sapiens, UniProt P10635). Put plainly: Human liver microsomal CYP inhibition experiment, CYP2D6. The settings on record: read-out: IC50 CYP2D6; mixed human liver microsomes, 10 min incubation with NADPH. The procedure:
as §1, §2, §3, §4

The target in the next data set is CYP1A2 (Homo sapiens, UniProt P05177). Put plainly: Human liver microsomal CYP inhibition experiment, CYP1A2. Conditions: read-out: IC50 CYP1A2; mixed human liver microsomes, 10 min incubation with NADPH. The procedure:
as §1, §2, §3, §4

The next data set has as its target CYP2C19 (Homo sapiens, UniProt P33261). Put plainly: Human liver microsomal CYP inhibition experiment, CYP2C19. Conditions: read-out: IC50 CYP2C19; mixed human liver microsomes, 10 min incubation with NADPH. Here is the method:
as §1, §2, §3, §4

Another data set addresses CYP3A4 (Homo sapiens, UniProt P08684). Kind of data set: Human liver microsomal CYP inhibition experiment, CYP3A4. The settings on record: read-out: IC50 CYP3A4; mixed human liver microsomes, 10 min incubation with NADPH. The procedure: as §1, §2, §3, §4

`N#Cc1ccc(N2CC3CC3C[C@@H]2C(O)C(F)(F)F)cc1C(F)(F)F` (stereo partly drawn): the half-maximal effective concentration (EC50) at androgen receptor (AR) worked out at 0.00022 µM.
Consider `N#Cc1ccc(N2CCC[C@@H]2[C@@H](O)C(F)(F)F)cc1Cl`, for which the 50% inhibitory concentration (IC50) at CYP2C9 is 6.4 µM; at CYP2D6 it was 14.3 µM; at CYP1A2, 11.5 µM; on CYP2C19 it was 0.336 µM; on CYP3A4 it was greater than 50 µM.
